For this series, the system named is Erwinia amylovora. The series can be described thus: In vitro infection tests on apple blossoms. Here is the method: In these tests, streptomycin was used as a positive control.
The in vitro tests on apple blossoms represented the natural course of infection and were conducted as follows: blooming apple blossoms were cut and further cultivated standing in a sterile sugar solution in transparent plastic containers. […] Following another 35 hours of incubation, the blossoms were wet by spraying on water. The infection rate was determined after 8 to 10 days of incubation at 22° C. and 70% relative humidity.

Turning to `CC1=CC(=O)c2c(O)cccc2C1=O` [Plumbagin, 5-hydroxy-2-methyl-1,4-naphthoquinone], the phyotoxic result (0.1 mM) was “no” and the phyotoxic result (0.5 mM) is on record as “yes”.

The values are drawn from patent US20140343165A1, “PLANT PROTECTION AGENT” (priority 2010, published 2014).
